From PubChem BioAssay (NCI)
Values joined by “and” are separate entries in the source; they are usually repeats but may differ in a detail not shown here. Equal entries are not always repeated. The list shows a part of the results, in another mix than the full data.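 Cell lines were cultured in 96-well plates, exposed to a single compound concentration, and assessed for percent growth 48 hours later.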 Active and inactive are the calls of the source. The calls were made as follows: active = growth percent below 10; inactive = the rest.

system: MCF7 breast; test: NCI-60 one-dose screen, 48 h (100 = growth as untreated, 0 = no growth, -100 = all killed); conditions: 10 µM unless noted

Compound | growth
CC1CCNP(=O)(N(CCCl)CCCl)O1 (stereo not drawn) | inactive: 92.1%
CCN(CCCl)CC1OC(O)C(O)C1O (stereo not drawn) | inactive: 100%
CN(CCCl)/N=N/c1nc2nc[nH]c(=O)c2[nH]1 | inactive: 90.9%
Nc1ccc(N(CCCl)CCCl)cc1 | inactive: 34.9%
c1cc(-c2nn[nH]n2)ccc1-c1nn[nH]n1 | inactive: 95.4%
CCCC1OP(N)(=O)OCC1CC (stereo not drawn) | inactive: 111% and inactive: 99%
CCOP(=S)(OCC)OCC | inactive: 91.5%
CCOP(=S)(OCC)SCCCl | inactive: 97.5%
CN(C)P1(Cl)=NP(Cl)(N(C)C)=NP(Cl)(N(C)C)=N1 (stereo not drawn) | inactive: 93.8%
Nc1ccc(CCCCOc2ccccc2)cc1 | inactive: 84.3%
O=[N+]([O-])c1cccc(Oc2ccc([N+](=O)[O-])cc2[N+](=O)[O-])c1 | inactive: 12.5%
CCN(CC)[P+](c1ccc(OC)cc1OC)(N(CC)CC)N(CC)CC | inactive: 12.6%
O=C(Nc1ccc([N+](=O)[O-])cc1)N(CCBr)CCBr | inactive: 95.8%
O=P1(N(CCCl)CCCl)Nc2ccccc2N1 | inactive: 106%
ClCCNCc1ccccc1 | inactive: 94.7%
O=C(O)/C=C\c1cccc(N(CCCl)CCCl)c1 | inactive: 86.7%
O=C(O[C@H]1CN2CCC1CC2)C1NCc2ccccc2[C@@H]1c1ccccc1 (stereo partly drawn) | inactive: 105%
CC(=O)Nc1ccc([As](=O)(O)O)c(O)c1 | inactive: 90.6%
ClCCN1CCNCC1 | inactive: 92.4%

Compound | growth
Cc1cc([N+](=O)[O-])cc([N+](=O)[O-])c1O | inactive: 96.3%
O=C(OC1CN2CCC1CC2)c1ccccc1 (stereo not drawn) | inactive: 101%
O=C(c1ccc([N+](=O)[O-])cc1)N(CCCl)CCCl | inactive: 98.5%
CCCCCCCCCCNP(=S)(Cl)Cl | inactive: 93.7%
COc1cc([N+](=O)[O-])c(Nc2ccc(Cl)cc2[N+](=O)[O-])c([N+](=O)[O-])c1 | inactive: 45.3%
O=[As]c1ccc(S(=O)(=O)Nc2ccccc2)cc1 (stereo not drawn) | active: -24.1%
Cc1ccc(S(=O)(=O)CN(CCCl)CCCl)cc1 | inactive: 85.6%
CCCN(CCCl)C1c2ccccc2-c2ccccc21 | inactive: 91.8%
CC(Cl)CN(CC(C)Cl)C(=O)c1ccccc1 (stereo not drawn) | inactive: 83%
CC(Cl)CN(CC(C)Cl)C(=O)OCC(N)C(=O)O (stereo not drawn) | inactive: 96.6% and inactive: 95.9%
C[As](=O)(O)c1cccc(C(=O)O)c1 | inactive: 91.7%
Cc1ccc(S(=O)(=O)N(CCCN)CCCc2c(C)nc(N)[nH]c2=O)cc1 | inactive: 91.8%
Cn1c(COc2ccc([N+](=O)[O-])cc2[N+](=O)[O-])cnc1[N+](=O)[O-] | inactive: 92.5%
O=[N+]([O-])c1ccc(CCCCCCc2ccc([N+](=O)[O-])cc2[N+](=O)[O-])c([N+](=O)[O-])c1 | inactive: 94.5%
CCSC(O)C(Cl)(Cl)Cl (stereo not drawn) | inactive: 100%
O=[N+]([O-])c1cc(Cl)cc([N+](=O)[O-])c1O | inactive: 102%
OP1OCCO1 | inactive: 97.2%
N#CC(C#N)=C(C#N)N(CCCl)CCCl | inactive: 86.5%
CC[C@H](C)[C@@H]1NC(=O)/C(=C(\C)O)C1=O | inactive: 92.9%
